Patent US20070191406A1, “Heterocyclic antiviral compounds” (Roche Palo Alto LLC, priority 2006, published 2007)

Chains of the proteins cited; added tags and fusions are not shown.
UniProt P51681, whole entry: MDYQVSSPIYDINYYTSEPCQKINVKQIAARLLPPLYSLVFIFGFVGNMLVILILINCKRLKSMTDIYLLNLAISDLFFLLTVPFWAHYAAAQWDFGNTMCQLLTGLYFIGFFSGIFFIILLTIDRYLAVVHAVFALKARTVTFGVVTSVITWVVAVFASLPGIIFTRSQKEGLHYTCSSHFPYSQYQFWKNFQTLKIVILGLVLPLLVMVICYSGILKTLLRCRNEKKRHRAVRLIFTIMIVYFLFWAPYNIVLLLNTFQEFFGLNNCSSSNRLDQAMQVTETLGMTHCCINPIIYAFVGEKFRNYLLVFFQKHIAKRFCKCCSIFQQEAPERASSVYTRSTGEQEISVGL

Molecular target: CCR5 (Homo sapiens, UniProt P51681)
Assay: CCR5-Mediated CCF Assay
Details: Hela-R5 cells (gp160 from R5-tropic virus, HIV-1 Tat) co-cultured 24 hrs with CEM-NKr-CCR5-Luc cells; luciferase readout
Procedure: CCF assay was performed as described before (C. Ji, J. Zhang, N. Cammack and S. Sankuratri, J. Biomol. Screen. 2006 11(6):652-663). Hela-R5 cells (express gp160 from R5-tropic virus and HIV-1 Tat) were plated in 384 well white culture plates (BD Bioscience, Palo Alto, Calif.) at 7.5×10^3 cells per well in phenol red-free Dulbecco's Modified Eagle Medium (DMEM) supplemented with 10% FBS, 1× Pen-Strep, 300 μg/mL G418, 100 μg/mL hygromycin, and 1 μg/mL Doxycycline (Dox) (BD Bioscience, Palo Alto, Calif.), using Multimek (Beckman, Fullerton, Calif.) and incubated at 37° C. overnight to induce the expression of gp160. Ten μL diluted compounds in medium containing 5% DMSO were added to the cells, followed by the addition of CEM-NKr-CCR5-Luc (obtained from NIH AIDS Research & Reference Reagents Program) that expresses CD4 and CCR5 and carries a HIV-2 long terminal repeat (LTR)-driven luciferase reporter gene at 1.5×10^4 cells/15 μL/well and incubated for 24 hrs. At the end of co-culture, 15 μL of Steady-Glo luciferase substrate was added into each well, and the cultures were sealed and gently shaken for 45 min. The luciferase activity were measured for 10 sec per well as luminescence by using 16-channel TopCount NXT (PerkinElmer, Shelton, Conn.) with 10 min dark adaptation and the readout is count per second (CPS). […]

- IC50: 4.2 nM
SMILES: Cc1ncnc(C)c1C(=O)N1C[C@H]2CN(CC[C@H](NC(=O)[C@@H]3CC[C@@H](OC(=O)C(C)C)C3)c3cccc(F)c3)C[C@H]2C1
